# Measured values from PubChem BioAssay AID624126 (The Scripps Research Institute Molecular Screening Center, 2012).
# Chains of the proteins cited; added tags and fusions are not shown.
# UniProt P08173, whole entry: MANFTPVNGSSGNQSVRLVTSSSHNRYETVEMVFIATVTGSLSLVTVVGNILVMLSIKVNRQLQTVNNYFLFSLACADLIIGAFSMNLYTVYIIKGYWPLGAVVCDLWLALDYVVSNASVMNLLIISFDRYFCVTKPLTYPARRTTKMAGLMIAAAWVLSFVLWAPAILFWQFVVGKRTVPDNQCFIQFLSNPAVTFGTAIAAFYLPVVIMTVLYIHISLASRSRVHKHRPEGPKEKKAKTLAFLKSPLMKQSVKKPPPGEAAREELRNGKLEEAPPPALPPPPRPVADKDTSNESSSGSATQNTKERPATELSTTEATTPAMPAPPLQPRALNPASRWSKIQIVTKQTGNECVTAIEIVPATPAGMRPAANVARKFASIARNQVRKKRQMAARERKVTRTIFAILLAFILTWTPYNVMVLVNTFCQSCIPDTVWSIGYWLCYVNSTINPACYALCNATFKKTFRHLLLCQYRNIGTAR
# Only a part is listed here, and it is no random draw. Some results for these compounds are left out of this collection, so the calls shown say nothing about other tests. Active and inactive are the calls of the source.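 The calls were made as follows: active = activation above its plate's cutoff, the mean activation of sample wells plus 3 SD; inactive = the rest.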
# Target: Muscarinic acetylcholine receptor M4 (Homo sapiens) (UniProt P08173)
# Assay: human M4 muscarinic receptor positive allosteric modulators, primary screen, CHO-K1 cells, Fluo-8 calcium fluorescence (AID 624126)
# Conditions: CHO-K1 hM4/Gqi5, Fluo-8 calcium fluorescence, ACh EC20; at 3 µM; hits give high values; 0% = ACh EC20, 100% = maximal ACh
row,Compound,activation
1,COc1ccc(Br)c(C(=O)NCC2(N3CCCCC3)CCCCC2)c1,inactive: -0.56%
2,C=C(C)C#CC(O)(C(=O)OC1CCN(C)CC1)c1ccccc1 (stereo not drawn),inactive: -11.5%
3,CN(C)c1cccc(C(=O)NCC2(N(C)C)CCCCC2)c1,inactive: 6.24%
4,O=C(OCCN1CCCC1)C(O)(c1ccccc1)c1ccccc1,inactive: -10.3%
5,CC(C)Oc1ccc(C(=O)NCC2(N(C)C)CCCCC2)cc1,inactive: 0.13%
6,O=C(OC1CN2CCC1CC2)C(CO)(c1ccccc1)c1ccccc1 (stereo not drawn),inactive: -19.9%
7,COc1ccc(Cl)cc1C(=O)NCC1(N(C)C)CCCCC1,inactive: -2.44%
8,COc1cccc(C(=O)NCC2(N3CCCCC3)CCCCC2)c1,inactive: 3.69%
9,O=C(NCC1(N2CCCCC2)CCCCC1)c1cccc(Cl)c1,inactive: 1.63%
10,CN(C)C1(CNC(=O)c2ccc(Br)cc2)CCCCC1,inactive: 4.44%
11,COc1cc(C(=O)NCC2(N(C)C)CCCCC2)c([N+](=O)[O-])cc1OC,inactive: 8.89%
12,O=C(NCC1(N2CCCCC2)CCCCC1)c1cc(F)c(F)cc1Cl,inactive: 1.57%
13,C=CCN1CCN(CCOC(=O)C(O)(c2ccccc2)c2ccccc2)CC1,inactive: -22.3%
14,O=C(NCC1(N2CCCCC2)CCCCC1)c1cccc(Br)c1,inactive: -3.45%
15,Cc1cc(C(=O)NCC2(N3CCCCC3)CCCCC2)ccc1[N+](=O)[O-],inactive: -4.1%
16,COc1ccc(C(=O)NCC2(N(C)C)CCCCC2)cc1,inactive: 2.31%
17,CN(C)c1ccc(C(=O)NCC2(N(C)C)CCCCC2)cc1,inactive: 10.8%
18,Cc1ccccc1C(=O)NCC1(N2CCCCC2)CCCCC1,inactive: -3.25%
19,CC(C)N1C(=O)CC2(CCN(CCOC(=O)C(O)(c3ccccc3)c3ccccc3)CC2)C1=O,inactive: 3.14%
20,COc1cc(SC)ccc1C(=O)NCC1(N(C)C)CCCCC1,inactive: -0.06%
21,CCN(CC)CC(C)C(C)OC(=O)C(O)(c1ccccc1)c1ccccc1 (stereo not drawn),inactive: -40.7%
22,Cc1ccc(C(=O)NCC2(N3CCCCC3)CCCCC2)cc1,inactive: -0.7%
23,O=C(NCC1(N2CCCCC2)CCCCC1)c1cc([N+](=O)[O-])ccc1Cl,inactive: -3.61%
